# From EP2608671B1, “COMPOUNDS FOR TREATMENT OF CANCER” (Gtx, Inc., priority 2010, dated 2012)
# Key:
# [1] = system: PC-3 prostate tumor xenograft; assay: In vivo antitumor efficacy, PC-3 xenograft; parameters: species or system mouse; conditions: for TGI (%): PC-3 xenograft, day 1 and 9, end point day 19
# [2] = system: PC-3/TxR; format: cell-based, human; conditions: IC50 in PC-3/TxR compared with PC-3
# [3] = system: A375 cells; assay: Cell cycle analysis (G2/M arrest), flow cytometry; format: cell-based, human
smiles,measurement,setting,value
"CC(=O)O[C@@]12CO[C@@H]1C[C@H](O)[C@@]1(C)C(=O)[C@H](O)C3=C(C)[C@@H](OC(=O)[C@H](O)[C@@H](NC(=O)OC(C)(C)C)c4ccccc4)C[C@@](O)([C@@H](OC(=O)c4ccccc4)[C@H]21)C3(C)C [Docetaxel, reference compound]",tumor growth inhibition (TGI),"[1]; PC-3 tumors, 20 mg/kg i.v.",> 100%
same,TGI (%),[1]; IV 10mpk,84%
same,TGI (%),[1]; IV 20mpk,> 100%
"COc1cc(C(=O)c2csc(Nc3ccc4[nH]ccc4c3)n2)cc(OC)c1OC [compound 55, (2-(1H-INDOL-5-YLAMINO)THIAZOL-4-YL)(3,4,5-TRIMETHOXYPHENYL)METHANONE]",resistance factor (data in parentheses),[2],0.4
"COc1cc2c(c(OC)c1OC)-c1ccc(OC)c(=O)cc1[C@@H](NC(C)=O)CC2 [Colchicine, reference compound]",concentration from which most cells are arrested in the G2/M phase,[3],50 nM
